Chains of the proteins cited; added tags and fusions are not shown.
UniProt O95372, whole entry L78I/A85S/P86Q/H152R/R153A/A154S: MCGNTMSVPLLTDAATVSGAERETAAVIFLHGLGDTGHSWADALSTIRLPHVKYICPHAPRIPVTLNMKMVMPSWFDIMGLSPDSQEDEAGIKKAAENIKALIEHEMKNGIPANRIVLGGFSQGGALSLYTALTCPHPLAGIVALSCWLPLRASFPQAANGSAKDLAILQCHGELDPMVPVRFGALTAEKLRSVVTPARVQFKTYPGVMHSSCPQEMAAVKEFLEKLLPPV

According to paper PMC5359770 (ACS chemical biology, 2016):

Target: APT2-L78I/A85S/P86Q/H152R/R153A/A154S (Homo sapiens, UniProt O95372, A154S/A85S/H152R/L78I/P86Q/R153A)
Conditions: ResOAc substrate

Substance: ML348
- Ki: 430 nM
